The text below walks through data of ChEMBL document CHEMBL1145127 (J Med Chem, 2003).

The chains behind the UniProt entries cited, without tags or fusion partners.
UniProt O00408, whole entry: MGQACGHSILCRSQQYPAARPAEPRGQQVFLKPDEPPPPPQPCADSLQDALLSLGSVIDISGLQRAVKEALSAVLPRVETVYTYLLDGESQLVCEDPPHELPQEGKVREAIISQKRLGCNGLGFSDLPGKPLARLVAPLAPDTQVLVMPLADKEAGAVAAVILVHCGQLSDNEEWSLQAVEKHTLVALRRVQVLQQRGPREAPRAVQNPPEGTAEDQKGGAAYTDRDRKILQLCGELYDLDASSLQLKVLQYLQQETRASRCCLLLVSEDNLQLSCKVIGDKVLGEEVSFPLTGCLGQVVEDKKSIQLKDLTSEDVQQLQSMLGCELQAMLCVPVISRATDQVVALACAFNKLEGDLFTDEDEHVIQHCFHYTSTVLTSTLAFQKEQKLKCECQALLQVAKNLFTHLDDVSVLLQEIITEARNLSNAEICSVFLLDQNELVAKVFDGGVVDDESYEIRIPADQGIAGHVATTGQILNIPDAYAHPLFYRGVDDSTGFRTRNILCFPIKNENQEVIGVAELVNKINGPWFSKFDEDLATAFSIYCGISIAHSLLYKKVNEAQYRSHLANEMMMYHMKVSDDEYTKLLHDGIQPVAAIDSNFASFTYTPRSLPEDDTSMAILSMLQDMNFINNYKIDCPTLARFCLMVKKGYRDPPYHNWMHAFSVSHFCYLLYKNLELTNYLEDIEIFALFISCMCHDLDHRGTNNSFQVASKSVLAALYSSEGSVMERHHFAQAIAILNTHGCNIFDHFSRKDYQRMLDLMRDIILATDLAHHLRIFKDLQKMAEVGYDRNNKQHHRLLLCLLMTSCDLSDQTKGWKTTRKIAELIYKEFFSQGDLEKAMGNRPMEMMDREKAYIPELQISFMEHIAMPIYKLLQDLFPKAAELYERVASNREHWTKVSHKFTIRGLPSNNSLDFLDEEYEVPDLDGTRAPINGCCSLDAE

The test deals with cGMP-dependent 3',5'-cyclic phosphodiesterase (Homo sapiens, UniProt O00408). Kind of test: Inhibition of Human recombinant PDE2 (Phosphodiesterase 2).

`CCCc1nn(C)c2c(=O)[nH]c(-c3cc(S(=O)(=O)N4CCN(C)CC4)ccc3OCC)nc12`: the IC50 (commonly the point on the concentration scale where inhibition reaches its midpoint) is more than 10 µM.
